Consider seven compounds from US7344850B2, “Identification of active-site inhibitors of glycosyltransferases using a generalizable high-throughput screen” (Princeton University, priority 2003, dated 2008).

Protein sequences, listed by entry. Tags and fused reporters are not part of them. Lines headed by an entry give the natural chain unless they say otherwise; changes in a name come on top.
UniProt P0A749: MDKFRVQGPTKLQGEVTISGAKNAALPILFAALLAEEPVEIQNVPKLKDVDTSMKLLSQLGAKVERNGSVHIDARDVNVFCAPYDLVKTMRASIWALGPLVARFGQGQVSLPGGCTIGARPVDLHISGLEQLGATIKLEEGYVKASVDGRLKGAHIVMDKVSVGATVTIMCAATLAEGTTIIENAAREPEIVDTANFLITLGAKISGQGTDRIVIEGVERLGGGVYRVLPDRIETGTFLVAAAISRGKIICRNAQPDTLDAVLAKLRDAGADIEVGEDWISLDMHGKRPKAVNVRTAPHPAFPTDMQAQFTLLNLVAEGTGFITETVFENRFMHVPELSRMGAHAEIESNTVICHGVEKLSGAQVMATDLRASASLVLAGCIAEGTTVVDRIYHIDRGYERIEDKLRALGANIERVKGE

Broadly, the pIC50 is −log10 of the IC50, conventionally taken in molar units.

pIC50: −log10 of the molar value. Where only a bound is given, the exact number is not on record here.

The target of the test is MurA (UniProt P0A749). The test is described as follows: Assay of MurA. As to conditions: read-out: IC50 MurA.
As for `CC1CCN(CN2C(=O)/C(=C\c3ccc(C(C)(C)C)cc3)SC2=S)CC1` [Compound 1, 5-(4-tert-Butyl-benzylidene)-3-(4-methyl-piperidin-1-ylmethyl)-2-thioxo-thiazolidin-4-one], the pIC50 is < 4.00.

With `O=C(O)CN1C(=O)/C(=C\c2cc(Cl)cc(Br)c2O)SC1=S` [Compound 2], the negative logarithm of the IC50 (pIC50) was < 4.00.

Consider `O=C1/C(=C2/C(=O)N(Cc3ccccc3)c3ccc(Br)cc32)SC(=S)N1CCS(=O)(=O)O` [Compound 3], for which the pIC50 is < 4.00.

Regarding `O=C1NC(=O)N(c2ccc(Cl)cc2)C(=O)/C1=C/c1ccc(Br)o1` [Compound 4], the negative-log IC50 (pIC50) is < 4.00.

On to `Cc1cc(/C=C2\C(=O)NC(=S)N(c3cccc(Cl)c3)C2=O)c(C)n1-c1cc(C(=O)O)cc(C(=O)O)c1` [Compound 5], for which the negative-log IC50 (pIC50) was < 4.00.

On to `CC(C)(C)c1ccc(OCCOc2cccc(C=C3C(=O)NC(=S)NC3=O)c2)cc1` [Compound 6], for which the pIC50 is < 4.00.

For the compound `O=C(O)c1ccc(N2C(=O)/C(=C/c3ccc(-c4ccc(Br)cc4)o3)C=C2c2ccccc2)cc1` [Compound 7], the negative logarithm of the IC50 (pIC50) was < 4.00.
